Test results from patent US4962224A, “N-naphthoylglycines as aldose reductase inhibitors” (American Home Products Corporation, priority 1989, dated 1990).

System: dulcitol accumulation
Experiment: lowering of dulcitol (galactitol) accumulation in tissues of galactosemic rats (Table I, IN VIVO)
Design: species or system rat (Sprague-Dawley)
Conditions: diaphragm, 9 mg/kg, 4 days
From the text: Such experiments are exemplified hereinbelow after the listing of the following general comments pertaining to these experiments:
(a) Four or more groups of six male rats, […], Sprague-Dawley strain, were used. The first group, the control group, was fed a mixture of laboratory chow (rodent Laboratory Chow, Purina) and […] at 20% (w/w %) concentration. […] The test compound was either admixed to the diet or administered by gavage. In experiments involving compound administration in the diet, the average dose administered was calculated from the actual food intake of the animals in each group. The concentration of galactose in the diet of the treated groups was the same as that for the untreated galactosemic group.
(b) After four days, the animals were killed by decapitation. The eyeballs were removed and punctured with a razor blade; the freed lenses were rolled gently on filter paper and weighed. The sciatic nerves were dissected as completely as possible and weighed. Both tissues when frozen can be kept up to two weeks before being analyzed for galactitol.
Only two minor reagent changes were made: (a) the rinsing mixture was an aqueous 5% (w/v) trichloroacetic acid solution and (b) the stock solution was prepared by dissolving 25 mg of dulcitol in 100 mL of an aqueous trichloroacetic acid solution. […]

## COc1ccc2c(C(=S)N(C)CC(=O)O)cccc2c1C(F)(F)F [tolrestat, N-[[6-methoxy-5-(trifluoromethyl)-1-naphthalenyl]thioxomethyl]-N-methylglycine, reference compound]
  % Lowering dulcitol accumulation IN VIVO, D: 87%
